{"source": "patent US20040157280A1", "about": "“Antibody mediated ozone generation” (priority 2001, published 2004)", "test": "Hydrogen peroxide production by UV-irradiated antibody/protein (Amplex Red assay)", "format": "biochemical", "conditions": "UV irradiation in PBS", "description": "Antibody/Protein Irradiation. Unless otherwise stated, the assay solution (100 μl, 6.7 μM protein in PBS, pH 7.4) was added to a glass vial, sealed with a screw-cap, and irradiated with either UV (312 nm, […] Fischer-Biotech transilluminator) or visible light.\nQuantitative Assay for Hydrogen Peroxide. An aliquot (20 μl) from the protein solution was removed and added into a well of a 96-well microtiter plate (Costar) containing reaction buffer (80 μl). Working solution (100 μl/400 μM Amplex Red reagent ½ units/ml horseradish peroxidase) was then added, and the plate was incubated in the dark for 30 min. The fluorescence of the well components was then measured using a CytoFluor Multiwell Plate Reader (Series 4000, PerSeptive Biosystems, Framingham, Mass.; Ex/Em: 530/580 nm). The hydrogen peroxide concentration was determined using a standard curve. All experiments were run in duplicate, and the rate is quoted as the mean of at least two measurements.\nDenaturation. IgG 19G12 (100 μl, 6.7 μM) was heated to 100EC in an Eppendorf tube for 2 min. The resultant solution was transferred to a glass, screw-cap vial and irradiated with UV light for 30 min. The concentration of H2O2 was determined after 30 min."}
{"substance": "β2-microglobulin: member of the immunoglobulin superfamily", "values": [{"measurement": "ability to reduce ^1O2 / generate H2O2 (in words)", "value": "does not generate H2O2"}, {"measurement": "ability to reduce ^1O2 / generate H2O2 (in words)", "setting": "listed as Human β2-microglobulin", "value": "does not generate H2O2"}, {"measurement": "ability to reduce ^1O2 / generate H2O2 (in words)", "setting": "listed as β2-macroglobulin", "value": "does not generate hydrogen peroxide"}]}
